The record followed here is patent US9790217B2, “Pyridinyloxy- and phenyloxy-pyrazolyl compounds” (Hoffmann-La Roche Inc., priority 2014, dated 2017).

By UniProt entry, the sequences of proteins in these tests, tags left out. Residues count along the entry.
UniProt P15538, 25-503 limits assumed: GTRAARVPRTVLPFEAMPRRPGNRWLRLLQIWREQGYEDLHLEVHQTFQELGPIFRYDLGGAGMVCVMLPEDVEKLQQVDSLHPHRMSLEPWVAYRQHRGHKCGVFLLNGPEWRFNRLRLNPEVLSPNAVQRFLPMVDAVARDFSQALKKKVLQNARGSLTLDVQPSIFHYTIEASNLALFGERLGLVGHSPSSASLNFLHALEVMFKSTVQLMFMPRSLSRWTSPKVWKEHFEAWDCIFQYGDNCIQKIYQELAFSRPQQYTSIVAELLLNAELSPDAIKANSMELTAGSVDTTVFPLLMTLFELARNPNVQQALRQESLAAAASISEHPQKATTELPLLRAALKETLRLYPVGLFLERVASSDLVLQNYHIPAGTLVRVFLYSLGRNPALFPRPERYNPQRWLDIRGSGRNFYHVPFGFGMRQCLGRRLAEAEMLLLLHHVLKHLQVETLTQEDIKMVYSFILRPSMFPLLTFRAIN
UniProt P19099, 25-503 limits assumed: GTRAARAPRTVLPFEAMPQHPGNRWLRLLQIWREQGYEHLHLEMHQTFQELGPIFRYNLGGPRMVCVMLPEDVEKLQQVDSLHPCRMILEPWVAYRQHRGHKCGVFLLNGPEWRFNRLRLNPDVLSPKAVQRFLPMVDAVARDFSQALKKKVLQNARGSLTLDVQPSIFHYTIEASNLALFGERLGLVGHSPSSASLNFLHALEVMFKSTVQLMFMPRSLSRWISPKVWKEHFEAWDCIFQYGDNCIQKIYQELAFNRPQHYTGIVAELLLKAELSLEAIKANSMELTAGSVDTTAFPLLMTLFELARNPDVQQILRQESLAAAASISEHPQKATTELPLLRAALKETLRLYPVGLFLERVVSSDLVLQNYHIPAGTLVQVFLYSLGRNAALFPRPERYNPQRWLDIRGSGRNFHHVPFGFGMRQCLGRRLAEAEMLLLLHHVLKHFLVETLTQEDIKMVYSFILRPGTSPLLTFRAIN

One assay addresses human CYP11B1 (Homo sapiens (Human), UniProt P15538). Description: G-402 cellular enzyme assay, human CYP11B1 (cortisol release, HTRF). As to conditions: read-out: EC50 human CYP11B1; G-402 cells expressing human CYP11B1; 1 μM Deoxycortisol. From the text:
(§1) Herein we identified the use of the G-402 cell line as a host cell to ectopically express (transiently or stably) enzymes of the CYP11 family. Specifically we developed stable G-402 cells expressing ectopically human CYP11B1, human CYP11B2, human CYP11A1, cynmolgus CYP11B1 or cynomolgus CYP11B2 enzyme activity. Importantly the identified cell line G-402 expresses co-factors (adrenodoxin and adrenodoxin reductase) important for the activity of the CYP11 family and no relevant enzyme activity of the CYP11 family (in comparison to H295R cells) was detected in these cells. Therefore the G-402 cell line is uniquely suited as a host cell for the ectopic expression of enzymes from the CYP11 family.
(§2) G-402 cells can be obtained from ATCC (CRL-1440) and were originally derived from a renal leiomyoblastoma.
(§3) The expression plasmids contains the ORF for either human/cyno CYP11B1 or CYP11B2 under the control of a suitable promoter (CMV-promoter) and a suitable resistance marker (neomycin). […] Individual cell-clones are then selected and assessed for displaying the desired enzymatic activity using 11-Deoxycorticosterone (Cyp11B2) or 11-Deoxycortisol (Cyp11B1) as a substrate. […]
(§4) [formula] wherein, A is the maximum y value, B is the EC50 factor determined using XLFit, C is the minimum y value and D is the slope value. […]

The target in a further assay is human CYP11B2 (Homo sapiens (Human), UniProt P19099). Description: G-402 cellular enzyme assay, human CYP11B2 (aldosterone release, HTRF). To be noted: read-out: EC50 human CYP11B2; G-402 cells expressing human CYP11B2; 1 μM Deoxycorticosterone.
Text: as §1, §2, §3, §4

In the case of `N#Cc1ccc(Oc2cn[nH]c2-c2ccccc2COc2cccnc2)cc1`, the results for the half-maximal effective concentration (EC50) on human CYP11B1 and on human CYP11B2 were 4300 nM and 520 nM, respectively.
